Tested on: cerebellar granule neurons (CGNs)
Assay: serum deprivation/KCl reduction-induced degeneration
Assay type: cell-based, mouse
Experimental: Kinase inhibitors (inhibitors of GSK3, JNK, EGFR, p38, and CaMKK) were tested for their capacity to protect cultured cerebellar granule neurons (CGNs) following serum deprivation/KCl reduction. Briefly, CGNs isolated from P7 mouse brain were cultured on PDL- and laminin-coated 96-well tissue culture dishes in medium containing serum and potassium (Basal Medium Eagles including 29 mM KCl and 10% FBS) at 37° C. After 24 hours in culture, cells were switched to “deprivation” medium (Basal Medium Eagles including 5 mM KCl), alone or in combination with various small molecule inhibitors as shown in Table 8. After a further 24 hours in culture, the neurons were fixed with 4% paraformaldehyde and stained with a neuronal marker (anti-class III β-Tubulin, Covance). Image acquisition was performed using the ImageXpress automated imaging system (Molecular Devices).

O=C1NC(=O)C(c2ccccc2[N+](=O)[O-])=C1Nc1ccc(O)c(Cl)c1 [SB 415286]
protection of cerebellar granule neurons from serum deprivation/KCl reduction: protect cerebellar granule neurons from serum deprivation/KCl reduction

— patent US20160279190A1, “MODULATION OF AXON DEGENERATION” (GENENTECH, INC., priority 2008, published 2016)
